Only a part is listed here, and it is no random draw. The source made the active and inactive calls.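 Rule for the calls: active = activation of at least 50%, plus an integration ratio under a set limit after plate pattern correction; inactive = the rest.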

This experiment deals with CRF-binding protein / CRF receptor 2 complex (human). The experiment is described as follows: agonists of CRF-BP/CRF-R2 complex, primary screen, cell-based, HEK293, calcium dye fluorescence, uHTS (AID 588473).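 Note: plate controls were neutral control wells without compound for no effect and CRF at EC100 for full effect.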 Particulars: calcium dye fluorescence (FLIPR), at 13.2 µM, active compounds read high, percent of saturating CRF peptide response.
Take `O=C(NCC1(N2CCCCC2)CCCCC1)c1ccco1`: the activation was inactive: 0.48%.

With `CN(C)c1ccc(C(=O)NCC2(N3CCCCC3)CCCCC2)cc1`, the activation is inactive: -2.26%.

For the compound `Cn1c(=O)[nH]cc(N(CCCl)CCCl)c1=O`, the activation was inactive: 5.91%.

On to `Cc1ccccc1NC1(C#N)CCN(Cc2ccccc2)CC1`, for which the activation was inactive: 0.72%.

As to `CCN1CCC(Nc2cccc(F)c2)CC1`, the activation is inactive: 7.42%.

In the case of `Cc1ccc(NC2(C#N)CCN(Cc3ccccc3)CC2)cc1`, the activation was inactive: 0.31%.

On to `Cc1ccc(C(=O)NCC2(N3CCCCC3)CCCCC2)o1`, for which the activation is inactive: -1.33%.

`Fc1ccccc1NC1CCN(Cc2ccccc2)CC1`: the activation is inactive: -2.45%.

Regarding `COc1cc(OC)cc(C(=O)NCC2(N3CCCCC3)CCCCC2)c1`, the activation is inactive: 0.65%.

As for `CC(=O)N(c1ccccc1)C1CCNCC1`, the activation was inactive: 2.83%.

On to `CN1CCC(Nc2ccc(Cl)cc2)CC1`, for which the activation was inactive: -1.2%.

Regarding `CCC(CO)(C(=O)OC1CN2CCC1CC2)c1ccccc1` (stereo unspecified), the activation is inactive: -2.35%.

For the compound `COc1cccc(C(=O)N(c2cc(C)cc(C)c2)C2CCN(C(=O)OC(C)(C)C)CC2)c1`, the activation is inactive: -4.38%.

For the compound `COc1cc(OC)cc(C(=O)NCC2(N3CCOCC3)CCCCC2)c1`, the activation is inactive: -0.23%.

In the case of `CCCOc1ccc(C(=O)NCC2(N(C)C)CCCCC2)cc1`, the activation is inactive: -1.47%.

Consider `CC(C)(C)OC(=O)N1CCC(Nc2ccccc2)CC1`, for which the activation was inactive: 0.5%.

Regarding `O=C(O)C1(Nc2ccccc2)CCN(Cc2ccccc2)CC1`, the activation was inactive: -0.91%.

Take `CCOc1ncccc1C(=O)NCC1(N2CCOCC2)CCCCC1`: the activation is inactive: -4.78%.

As to `CN1CCC(Nc2ccc(F)c(Cl)c2)CC1`, the activation is inactive: 5.44%.

For `CCc1cc(C(=O)NCC2(N3CCCCC3)CCCCC2)sc1C`, the activation was inactive: 29%.

With `O=C(OC1CN2CCC1CC2)C1c2ccccc2C=Cc2ccccc21` (stereo unspecified), the activation is inactive: 1.24%.

As to `N/C(=N\O)c1c(N)no[n+]1[O-]`, the activation is inactive: 1.29%.

As for `CCOC(=O)N1CCC(Nc2ccc(C)cc2)CC1`, the activation is inactive: -1.99%.

Regarding `COc1ccc(C(=O)NCC2(N3CCOCC3)CCCCC2)cc1OC`, the activation is inactive: -1.33%.

Take `O=C(NCC1(N2CCOCC2)CCCCC1)c1cc(Br)ccc1Cl`: the activation is inactive: -2.9%.

With `COc1cc(C(=O)NCC2(N3CCOCC3)CCCCC2)cc(OC)c1C`, the activation was inactive: -0.2%.

As to `c1ccc(CN2CCC(Nc3ccccc3)CC2)cc1`, the activation is inactive: -0.99%.

Regarding `CCCN1CCC(Nc2cc(OC)cc(OC)c2)CC1`, the activation is inactive: -0.3%.

On to `Cc1cc(N(CCCl)CCCl)ccc1C=O`, for which the activation is inactive: -2.69%.

Consider `CN(C)C1(CNC(=O)c2cccc(C#N)c2)CCCCC1`, for which the activation is inactive: -0.02%.

For the compound `CC(C)(C)OC(=O)N1CCC(N(C(=O)c2ccccc2)c2ccc(Cl)cc2)CC1`, the activation was inactive: -0.56%.

For the compound `N#Cc1ccc(C(=O)NCC2(N3CCCCC3)CCCCC2)cc1`, the activation was inactive: 2.45%.

With `COc1ccc(NC2CCN(C(=O)OC(C)(C)C)CC2)cc1`, the activation was inactive: -1.53%.

As to `CC(C)c1ccc(C(=O)NCC2(N3CCOCC3)CCCCC2)cc1`, the activation is inactive: -1.34%.

With `CN1CCN(CCOC(=O)C(O)(c2ccccc2)c2ccccc2)CC1`, the activation is inactive: 0.1%.

`O=C(NCC1(N2CCOCC2)CCCCC1)c1cc(=O)[nH]c2ccccc12`: the activation is inactive: -0.71%.

As to `COc1cc(C(=O)NCC2(N3CCCCC3)CCCCC2)ccc1OC(F)F`, the activation was inactive: 0.19%.

With `O=C(NCC1(N2CCCCC2)CCCCC1)c1cccc(C(F)(F)F)c1`, the activation was inactive: 3.57%.

With `CSc1ccc(C(=O)NCC2(N3CCOCC3)CCCCC2)cc1`, the activation is inactive: -1.76%.

Consider `O=C(NCC1(N2CCCCC2)CCCCC1)c1cccc([N+](=O)[O-])c1`, for which the activation is inactive: 0.68%.

As to `CCN1CCC(Nc2ccc(Cl)cc2)CC1`, the activation was inactive: 3.51%.

On to `N#CC1(Nc2ccccc2)CCN(CCc2ccccc2)CC1`, for which the activation was inactive: 3.79%.

Turning to `O=C(NCC1(N2CCCCC2)CCCCC1)c1ccc(OC(F)F)cc1`, the activation was inactive: 1.69%.

As to `Cc1ccc(C(=O)NCC2(N(C)C)CCCCC2)o1`, the activation was inactive: -0.55%.

Turning to `CCCOc1ccc(C(=O)NCC2(N(C)C)CCCCC2)cc1OC`, the activation was inactive: -2.96%.

For `CN1CCC(Nc2cccc(F)c2)CC1`, the activation is inactive: -1.19%.

Consider `O=C(NCC1(N2CCCCC2)CCCCC1)c1cncc(Br)c1`, for which the activation was inactive: 0.14%.

Consider `COc1cc(OC)c(C(=O)NCC2(N(C)C)CCCCC2)cc1OC`, for which the activation is inactive: -1.43%.

Turning to `O=C(NCC1(N2CCOCC2)CCCCC1)c1cc(F)c(F)cc1Cl`, the activation is inactive: -0.59%.

Turning to `COc1ccc(CN(CCCl)CCCl)cc1Cl`, the activation was inactive: -1.91%.

Consider `CN(C)c1cccc(C(=O)NCC2(N3CCCCC3)CCCCC2)c1`, for which the activation is inactive: -2.67%.

With `CC(C)c1ccc(NC2CCN(C(=O)OC(C)(C)C)CC2)cc1`, the activation was inactive: 3.95%.

For the compound `CCOC(=O)N1CCC(Nc2ccc(OC)cc2)CC1`, the activation is inactive: 0.16%.

As for `N#CC1(Nc2ccccc2)CCN(Cc2ccccc2)CC1`, the activation was inactive: 1.1%.

Consider `O=C(NCC1(N2CCCCC2)CCCCC1)c1ccc(Cl)s1`, for which the activation is inactive: -1.21%.

Consider `O=C(OC1CN2CCC1CC2)C1c2ccccc2Oc2ccccc21` (stereo unspecified), for which the activation was inactive: -0.05%.

For the compound `COc1ccc(Cl)cc1C(=O)NCC1(N2CCOCC2)CCCCC1`, the activation was inactive: -1.76%.

In the case of `O=C(NCC1(N2CCOCC2)CCCCC1)c1cc2ccccc2o1`, the activation was inactive: 1.13%.

Turning to `O=C(NCC1(N2CCCCC2)CCCCC1)c1ccc(Cl)nc1`, the activation was inactive: -1.62%.

`Cc1cc(C)cc(N(C(=O)c2ccccc2)C2CCN(C(=O)OC(C)(C)C)CC2)c1`: the activation was inactive: -0.49%.

Take `CSc1ccccc1C(=O)NCC1(N2CCCCC2)CCCCC1`: the activation was inactive: 0.06%.

For the compound `Cc1cccc(NC2(C#N)CCN(Cc3ccccc3)CC2)c1`, the activation was inactive: -2.59%.

Take `O=C(NCC1(N2CCCCC2)CCCCC1)c1ccc(=O)[nH]c1`: the activation was inactive: -0.98%.

Take `O=C(NCC1(N2CCCCC2)CCCCC1)c1cccs1`: the activation was inactive: -0.76%.

With `COc1ccc(C(=O)NCC2(N3CCCCC3)CCCCC2)cc1`, the activation was inactive: 0.56%.

For `COc1ccc(C(=O)NCC2(N3CCCCC3)CCCCC2)c(OC)c1OC`, the activation is inactive: 0.72%.

For the compound `CC(C)(C)OC(=O)N1CCC(N(C(=O)c2ccccc2)c2ccc(F)cc2)CC1`, the activation was inactive: 0.13%.

For `CCOC(=O)N1CCC(Nc2cccc(C)c2)CC1`, the activation was inactive: -2.28%.

With `COc1cc(C(=O)NCC2(N(C)C)CCCCC2)ccc1OC(F)F`, the activation is inactive: 0.79%.

In the case of `CCCCOc1ccc(C(=O)NCC2(N3CCOCC3)CCCCC2)cc1`, the activation was inactive: -0.99%.

With `O=P1(N(CCCl)CCCl)SCCCS1`, the activation was inactive: -0.93%.

Take `O=C(NCC1(N2CCCCC2)CCCCC1)c1ccc(F)cc1`: the activation is inactive: -0.41%.

For `CCOC(=O)N1CCC(Nc2ccc(F)cc2)CC1`, the activation was inactive: -1.65%.

`COc1ccc(NC2CCN(CCc3ccccc3)CC2)c(OC)c1`: the activation was inactive: 0.76%.

Turning to `CCOc1ccc(C)cc1CN(CCCl)CCCl`, the activation was inactive: -0.48%.

`O=C1CCN(Cc2ccccc2)CC1`: the activation was inactive: 2.88%.

Values taken from PubChem BioAssay AID588473 (Sanford-Burnham Center for Chemical Genomics, 2011).
